Measured properties of organic chemicals

Source: data files of OPERA 2.9 (Mansouri et al.), github.com/kmansouri/OPERA.

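These are experimental values that the OPERA curators gathered from public databases to train and test their QSAR models. One number stands for a compound and property, with no spread given. How each value was measured is not recorded, so precision varies. Where a salt, mixture or single isomer is drawn, the source does not say that exactly this form was tested. Unmarked limits or estimates from the upstream databases cannot be ruled out.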

The melting point is given in degrees Celsius. Boiling points are in °C, nominally at 760 mmHg. logP is the log10 of the octanol-water partition coefficient; higher is more lipophilic. Solubility in water is on a log10 molar scale (set defined at 25 °C). Vapor pressure is log10 of mmHg; the set covers 15 to 30 °C, mostly 20 to 25 °C. The unbound fraction in human plasma runs from 0 (all bound) to 1 (all free).

{"smiles": "O=C(Cc1ccc(-c2ccccc2)cc1)OCC1CCCCC1", "MP (°C)": "71.22", "water solubility (log10 mol/L)": "-7.79", "vapor pressure (log10 mmHg)": "-6.678"}
{"smiles": "CCOC(=O)C(C)CC", "stereo": "configuration not stated", "water solubility (log10 mol/L)": "-2.336", "vapor pressure (log10 mmHg)": "0.944"}
{"smiles": "O=C1CCc2cc(OCCCCc3nnnn3C3CCCCC3)ccc2N1", "logP": "2.3", "water solubility (log10 mol/L)": "-4.057"}
{"smiles": "CC(C)OC(=O)CCCCC(=O)OC(C)C", "logP": "3.389", "water solubility (log10 mol/L)": "-3.107"}
{"smiles": "CCC1=NCCO1", "logP": "0.264", "vapor pressure (log10 mmHg)": "0.079"}
{"smiles": "COC(=O)CCN(CCC(=O)OC)c1ccc(N=Nc2ccc([N+](=O)[O-])cc2[N+](=O)[O-])c(NC(C)=O)c1", "MP (°C)": "162", "logP": "4.5"}
{"smiles": "CCO[Si](CCC(F)(F)C(F)(F)C(F)(F)C(F)(F)C(F)(F)C(F)(F)F)(OCC)OCC", "water solubility (log10 mol/L)": "-5.407", "vapor pressure (log10 mmHg)": "0.701"}
{"smiles": "COc1ccc(C(OC[C@H]2O[C@@H](n3cnc4c(NC(=O)c5ccccc5)ncnc43)C[C@@H]2O)(c2ccccc2)c2ccc(OC)cc2)cc1", "water solubility (log10 mol/L)": "-6.672", "vapor pressure (log10 mmHg)": "-8.988"}
{"smiles": "Cn1nc(C(F)F)c(C(=O)F)c1F", "MP (°C)": "16.3", "bp (°C)": "233", "logP": "2", "vapor pressure (log10 mmHg)": "-2.33"}
{"smiles": "CCCCOC(=O)OCCCC", "logP": "3.2", "water solubility (log10 mol/L)": "-3.141", "vapor pressure (log10 mmHg)": "-0.765"}
{"smiles": "C=C1[C@H](CO)[C@@H](O)C[C@@H]1n1cnc2c(=O)[nH]c(N)nc21", "logP": "-0.8", "water solubility (log10 mol/L)": "-2.063", "plasma fu": "0.87"}
{"smiles": "CC(O)C(=O)N(C)C", "stereo": "configuration not stated", "logP": "-0.94", "vapor pressure (log10 mmHg)": "-1.046"}
{"smiles": "C=CC(C)(O)CC/C=C(\\C)CC", "stereo": "stereo partly drawn", "MP (°C)": "-73", "logP": "3.3", "water solubility (log10 mol/L)": "-2.409", "vapor pressure (log10 mmHg)": "-0.87"}
{"smiles": "CCCCCCCC(=O)OCC(C)(C)COC(=O)CCCCCCC", "MP (°C)": "-54", "logP": "7.66"}
{"smiles": "Cc1ncc(C[n+]2csc(CCOP(=O)([O-])OP(=O)(O)O)c2C)c(N)n1", "logP": "-4.9", "vapor pressure (log10 mmHg)": "-9.319"}
{"smiles": "CN1CCCC(n2nc(Cc3ccc(Cl)cc3)c3ccccc3c2=O)CC1", "stereo": "configuration not stated", "MP (°C)": "225", "logP": "4.9"}
{"smiles": "COc1cc(NC(=O)c2cc3ccccc3cc2O)c(OC)cc1Cl", "logP": "2.85", "water solubility (log10 mol/L)": "-5.062"}
{"smiles": "CCOc1cc(NC(=O)c2ccccc2)c(OCC)cc1N", "logP": "3.232", "water solubility (log10 mol/L)": "-2.406"}
{"smiles": "C=CC(=O)OC1CC(C)CC(C)(C)C1", "stereo": "configuration not stated", "MP (°C)": "-94.8", "logP": "4.535", "water solubility (log10 mol/L)": "-4.03"}
{"smiles": "C[C@H](O)[C@H](O)[C@@H](O)[C@@H](O)C=O", "logP": "-2.17", "vapor pressure (log10 mmHg)": "-6.087"}
{"smiles": "Nc1ncnc2c1ncn2[C@@H]1O[C@H](COP(=O)(O)O)[C@@H](O)[C@H]1O", "logP": "-1.81", "vapor pressure (log10 mmHg)": "-4.281"}
{"smiles": "CCCCc1ccc(Nc2ccc(Nc3ccc(CCCC)cc3)c3c2C(=O)c2c(Nc4ccc(CCCC)cc4)ccc(Nc4ccc(CCCC)cc4)c2C3=O)cc1", "MP (°C)": "178", "water solubility (log10 mol/L)": "-8.153", "vapor pressure (log10 mmHg)": "-8.197"}
{"smiles": "CC(C)=CCCC(C)CCCC(C)C=O", "stereo": "configuration not stated", "water solubility (log10 mol/L)": "-5.497", "vapor pressure (log10 mmHg)": "-2.538"}
{"smiles": "Cc1cc(O)c(C(C)(C)C)cc1Sc1cc(C(C)(C)C)c(O)cc1C", "logP": "5.485", "vapor pressure (log10 mmHg)": "-6.222"}
{"smiles": "CCC(=O)O[C@]1(C(=O)S)[C@H](C)C[C@H]2[C@@H]3C[C@H](F)C4=CC(=O)C=C[C@]4(C)[C@@]3(F)[C@@H](O)C[C@@]21C", "logP": "1.298", "water solubility (log10 mol/L)": "-3.943"}
{"smiles": "CO[C@@H]1C=CO[C@]2(C)Oc3c(C)c(O)c4c(c3C2=O)C(=O)C(N)=C(NC(=O)C(C)=CC=C[C@@H](C)[C@@H](O)[C@H](C)[C@H](O)[C@H](C)[C@@H](OC(C)=O)[C@H]1C)C4=O", "MP (°C)": "155.7", "logP": "4.1", "water solubility (log10 mol/L)": "-3.568", "vapor pressure (log10 mmHg)": "-7.813"}
{"smiles": "CC1(C)[C@@H]2CC[C@@]1(C)CC2=O", "MP (°C)": "186", "bp (°C)": "213"}
{"smiles": "CC(C)=CCC[C@](C)(O)[C@@H]1CC=C(C)CC1", "logP": "5.15", "water solubility (log10 mol/L)": "-3.952", "vapor pressure (log10 mmHg)": "-3.806"}

Excerpt, the opening 2 entries:

{"smiles": "O=C(Cc1ccc(-c2ccccc2)cc1)OCC1CCCCC1", "MP (°C)": "71.22", "water solubility (log10 mol/L)": "-7.79", "vapor pressure (log10 mmHg)": "-6.678"}
{"smiles": "CCOC(=O)C(C)CC", "stereo": "configuration not stated", "water solubility (log10 mol/L)": "-2.336", "vapor pressure (log10 mmHg)": "0.944"}